Yeast mating assay 2: variants of the scFv Ab-91

Values reported by Engelhart et al. 2022, doi:10.1038/s41597-022-01779-4 (FLAb copy).

The target is the same throughout: PDVDLGDISGINAS, from the HR2 region of SARS-CoV-2 spike.

The variants keep the light chain, the linker and the frameworks of Ab-91 (scFv order VL, three GGGGS repeats, VH).
VL: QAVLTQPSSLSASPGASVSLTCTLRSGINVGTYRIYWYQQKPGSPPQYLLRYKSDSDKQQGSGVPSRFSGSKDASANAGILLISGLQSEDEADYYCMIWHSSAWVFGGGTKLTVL
VH: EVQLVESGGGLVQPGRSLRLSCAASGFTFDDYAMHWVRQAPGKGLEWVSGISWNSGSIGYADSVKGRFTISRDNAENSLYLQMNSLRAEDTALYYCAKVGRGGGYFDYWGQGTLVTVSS

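The library (AAYL51) carries one to three amino acid substitutions per variant, with no insertions or deletions. Affinity was read by AlphaSeq, a pooled yeast mating assay with surface-displayed partners. Mating (16 h, 30 °C) was followed by selection of diploids and sequencing of their barcodes. Scores were corrected for input abundance and mapped to Kd with protein pairs of known affinity run in the same pool. The assay was run in three technical replicates.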

Substitutions are numbered in sequence along the VH above, starting at 1 (not Kabat).
Numbers give log10(Kd / nM), so 0 is 1 nM and 3 is 1 µM. Smaller is tighter.
A mean of the replicates is given; it leaves out those without a signal.
An entry "not detected" has no value in the source: the pair was not observed among the diploids in any replicate. This suggests poor binding but is not conclusive.
As a blank, each scFv also met three strains without target: over library AAYL51, 21% of these pairings were detected, typically at 4.54 and seldom below 3.26.
Parent in this assay: reference entry 1.86, copy in this library 0.88.

| mean log10 Kd (nM) | seen in | changes |
|---|---|---|
| not detected | 0 of 3 | T28S/A33F/F106C |
| 6.23 | 2 of 3 | F29I/I58T/G59W |
| 1.46 | 3 of 3 | G56Q/A61H |
| 3.91 | 1 of 3 | G50E/N54Y |
| not detected | 0 of 3 | A61Y/G104I |
| not detected | 0 of 3 | I58M/A61R/V64K |
| not detected | 0 of 3 | H35C/Y60V/A61E |
| not detected | 0 of 3 | A33F/S55Q/V99C |
| 4.82 | 3 of 3 | S52I/W53K/G103S |
| not detected | 0 of 3 | S57Y/Y105K/D107K |
| 5.44 | 1 of 3 | A33T/N54W/D107K |
| not detected | 0 of 3 | N54Q/S55G/G56T |
| 1.65 | 3 of 3 | D30N/Y60V/K65I |
| 3.88 | 2 of 3 | N54Y/G56N/K65A |
| 3.95 | 1 of 3 | T28R/G50D |
| 3.68 | 1 of 3 | Y32P/Y60H/S63K |
| 3.84 | 3 of 3 | S52A/S57D/F106L |
| not detected | 0 of 3 | A33P/M34V/V64D |
| not detected | 0 of 3 | I51P/V64K/V99L |
| 0.50 | 3 of 3 | D31F/W53H/D107C |
| not detected | 0 of 3 | S52E/V64Q/R101W |
| 2.06 | 3 of 3 | G26C/G100K/R101W |
| 5.24 | 1 of 3 | D30N/Y32G/I51H |
| 4.28 | 3 of 3 | F29C/V64A/G100Q |
| 3.59 | 3 of 3 | F29L/D31P |
| 1.11 | 3 of 3 | D30E/Y32M/A61T |
| not detected | 0 of 3 | D30N/S52I/N54M |
| 5.84 | 1 of 3 | S63V/G104M |
| 4.83 | 1 of 3 | H35S/G50C/A61E |
| 5.48 | 3 of 3 | A61M/G100H/G102Q |
| 2.02 | 3 of 3 | D31H/A61S/S63A |
| 4.79 | 3 of 3 | G56S/G102T |
| not detected | 0 of 3 | H35G/I58L/G102Y |
| not detected | 0 of 3 | G50S/V64Q/G104W |
| not detected | 0 of 3 | G26W/M34N/G56Y |
| not detected | 0 of 3 | N54G/S55M/D107M |
| 4.64 | 2 of 3 | T28A/D31P/D107T |
| 4.33 | 1 of 3 | T28W/A33V/G103V |
| not detected | 0 of 3 | D30L/G59M/Y105Q |
| not detected | 0 of 3 | F27V/S55W/G103N |
| 4.23 | 2 of 3 | H35F/Y60K/V99Q |
| not detected | 0 of 3 | F27N/Y105C |
| not detected | 0 of 3 | S57N/A61H/V64Y |
| not detected | 0 of 3 | G26I/D30K/V99A |
| 3.82 | 1 of 3 | H35Q/S55I/D107L |
| not detected | 0 of 3 | F27Y/N54I/A61N |
| 5.01 | 2 of 3 | T28E/D30T/Y32D |
| 4.62 | 2 of 3 | T28A/S57R/Y108E |
| 1.50 | 3 of 3 | T28I/W53A/K65G |
| 5.37 | 3 of 3 | Y32E/V64M/R101P |
| not detected | 0 of 3 | T28Y/G102N |
| not detected | 0 of 3 | G59A/V99D/G102E |
| not detected | 0 of 3 | D31K/G50Y/I51V |
| 3.93 | 3 of 3 | W53C/N54H/Y60Q |
| not detected | 0 of 3 | F27S/R101N/F106I |
| 3.66 | 1 of 3 | D30Y/K65L/Y108P |
| 5.05 | 1 of 3 | A33G/H35L/G56M |
| 3.26 | 3 of 3 | T28C/K65F/G102D |
| not detected | 0 of 3 | Y60H/V64E/D107L |

The closing 5 entries, repeated:

{"changes": "F27S/R101N/F106I", "mean log10 Kd (nM)": "not detected", "seen in": "0 of 3"}
{"changes": "D30Y/K65L/Y108P", "mean log10 Kd (nM)": "3.66", "seen in": "1 of 3"}
{"changes": "A33G/H35L/G56M", "mean log10 Kd (nM)": "5.05", "seen in": "1 of 3"}
{"changes": "T28C/K65F/G102D", "mean log10 Kd (nM)": "3.26", "seen in": "3 of 3"}
{"changes": "Y60H/V64E/D107L", "mean log10 Kd (nM)": "not detected", "seen in": "0 of 3"}